What was measured:
[1] = BMP-2 bound via cyclopeptides to the matrix structure: activity and release from the support; conditions: bound via various cyclopeptides to the matrix structure
[2] = tested on: pluripotent mouse fibroblasts (MC3T3-E1); test: BMP-2-doped gelatine supports stored in culture medium, then MC3T3-E1 alkaline phosphatase activity; type: cell-based; conditions: stored in cell culture medium under culturing conditions; ALP activity of MC3T3-E1
Description: In accordance with A), gelatine supports were doped with the growth factor bone morphogenetic protein 2 (BMP-2). The supports doped in this way were stored in cell culture medium under culturing conditions for various times. Subsequently, the supernatant of the culture medium was removed and a cell suspension with pluripotent mouse fibroblasts (MC3T3-E1) was added, which fibroblasts differentiate to osteoblasts after activation with BMP-2, and express alkaline phosphatase whose activity can be used as a measure of the stimulation by the growth factor.

BMP-2: growth factor bone morphogenetic protein 2
activity of BMP-2 in the support [1]: retained its activity in the support
time the growth factor was active in the gelatine support [2]: up to 28 days

— patent US20100291179A1, “COMPOSITE BIOMATERIAL FOR CONTROLLED RELEASE OF ACTIVE INGREDIENTS” (NMI Naturwissenschaftliches und Medizinishes Institut an …, priority 2007, published 2010)
